Data taken from patent US20130266564A1 (NATIONAL RESEARCH COUNCIL OF CANADA, published 2013).

Target: T1, ErbB2 (eBiosciences Inc.) (UniProt P04626, in part)
T1 construct: also called HER2; Her2
Assay: SPR (BioRad Proteon), antibody captured, ErbB2 as analyte, 1:1 Langmuir fit

- Kd: 0.243 nM
- koff: 0.000172 s⁻¹
- kon: 707000 M⁻¹ s⁻¹
B1: Variant 7-1 (antibody, human IgG1, kappa, V domains shown)
VH: [in this place about 120 residues]
VL: DIQMTQSPSSLSASVGDRVTITCRASQDVNTAVAWYQQKPGKAPKLLIYSASFLYSGVPSRFSGSRSGTDFTLTISSLQPEDFATYYCQQHYTTPPTFGQGTKVEIKR
notes: also called m5-HC + wt-LC
